Experimental data published in patent US8957024B2, “Composition and methods for reducing opioid-induced pruritus” (priority 2011, dated 2015).

System: mice
Experiment: Scratching behavior after i.t. opioid injection (morphine-induced scratching, MIS)
Conditions: morphine 0.3 nmol, DAMGO 0.02 nmol, fentanyl

CN1CC[C@]23c4c5ccc(O)c4O[C@H]2[C@@H](O)C=C[C@H]3[C@H]1C5 [morphine]
opioid-induced scratching in GRPR KO vs wild-type littermate mice: nearly abolished
